The values below are quoted from earlier work in US6444477B1, “Assay method for detecting 5-HT2B antagonists” (Pharmagene Laboratories Limited, priority 2000, dated 2002).

By UniProt entry, the sequences of proteins in these tests, tags left out.
UniProt P41595, whole entry: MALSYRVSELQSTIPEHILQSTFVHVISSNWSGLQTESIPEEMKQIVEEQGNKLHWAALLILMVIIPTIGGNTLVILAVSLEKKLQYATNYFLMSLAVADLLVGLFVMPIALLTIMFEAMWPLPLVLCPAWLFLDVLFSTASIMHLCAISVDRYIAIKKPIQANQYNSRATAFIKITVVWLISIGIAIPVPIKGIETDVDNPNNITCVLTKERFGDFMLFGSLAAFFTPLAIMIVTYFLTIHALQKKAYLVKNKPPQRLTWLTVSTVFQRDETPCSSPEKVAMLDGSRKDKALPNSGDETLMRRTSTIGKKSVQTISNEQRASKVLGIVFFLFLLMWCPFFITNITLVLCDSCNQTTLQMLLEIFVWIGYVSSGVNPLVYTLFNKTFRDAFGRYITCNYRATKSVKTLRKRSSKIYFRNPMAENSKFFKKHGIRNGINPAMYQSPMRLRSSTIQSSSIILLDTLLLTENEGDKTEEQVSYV

The series concerns the target 5-HT2B receptor (Homo sapiens, UniProt P41595). Conditions: cited from earlier work.

In the case of `CSc1ccc2c(c1)C(N1CCN(C)CC1)Cc1ccccc1S2` (stereo not shown), the “affinity from binding data (#) at human 5-HT2B receptor” value is reported as 8.1^#.
